Protein sequences, listed by entry. Tags and fused reporters are not part of them. Lines headed by an entry give the natural chain unless they say otherwise; changes in a name come on top.
UniProt P06276, whole entry, looked up: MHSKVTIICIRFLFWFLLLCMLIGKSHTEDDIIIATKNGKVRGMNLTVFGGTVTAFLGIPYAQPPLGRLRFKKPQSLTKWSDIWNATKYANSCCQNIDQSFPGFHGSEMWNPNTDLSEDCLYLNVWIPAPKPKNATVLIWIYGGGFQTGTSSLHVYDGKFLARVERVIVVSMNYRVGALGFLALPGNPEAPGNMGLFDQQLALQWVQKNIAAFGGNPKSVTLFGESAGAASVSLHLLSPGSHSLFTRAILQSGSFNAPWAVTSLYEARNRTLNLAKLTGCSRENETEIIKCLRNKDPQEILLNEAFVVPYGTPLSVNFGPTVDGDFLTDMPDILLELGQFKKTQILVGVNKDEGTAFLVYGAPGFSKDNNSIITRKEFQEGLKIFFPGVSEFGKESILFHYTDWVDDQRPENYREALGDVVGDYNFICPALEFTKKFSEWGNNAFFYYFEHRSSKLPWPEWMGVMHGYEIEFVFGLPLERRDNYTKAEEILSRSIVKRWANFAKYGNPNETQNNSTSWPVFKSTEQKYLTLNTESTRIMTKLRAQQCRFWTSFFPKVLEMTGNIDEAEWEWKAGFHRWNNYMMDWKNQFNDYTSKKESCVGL
UniProt P22303: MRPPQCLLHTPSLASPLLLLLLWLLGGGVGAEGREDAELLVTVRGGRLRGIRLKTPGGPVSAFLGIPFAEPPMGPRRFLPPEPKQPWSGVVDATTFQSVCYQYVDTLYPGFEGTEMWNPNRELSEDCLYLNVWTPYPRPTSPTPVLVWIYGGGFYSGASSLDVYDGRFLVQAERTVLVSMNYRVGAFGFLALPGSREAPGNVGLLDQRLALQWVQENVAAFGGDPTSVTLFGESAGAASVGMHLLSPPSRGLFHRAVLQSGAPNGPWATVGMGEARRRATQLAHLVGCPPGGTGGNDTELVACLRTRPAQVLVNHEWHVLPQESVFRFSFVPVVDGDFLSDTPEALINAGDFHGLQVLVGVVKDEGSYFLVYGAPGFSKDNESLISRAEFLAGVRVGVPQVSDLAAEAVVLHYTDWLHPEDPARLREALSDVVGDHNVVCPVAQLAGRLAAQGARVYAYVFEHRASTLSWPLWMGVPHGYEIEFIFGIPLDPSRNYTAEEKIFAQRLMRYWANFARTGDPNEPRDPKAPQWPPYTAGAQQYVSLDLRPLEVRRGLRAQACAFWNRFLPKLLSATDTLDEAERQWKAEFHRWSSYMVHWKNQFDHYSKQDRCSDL

In ChEMBL document CHEMBL5113391, “Halogen substituents enhance oxime nucleophilicity for reactivation of cholinesterases inhibited by nerve agents” (2022):

Legend:
[1] = molecular target: Cholinesterase (Homo sapiens) (UniProt P06276); assay: Reactivation of sarin induced inhibition of BChE in human plasma assessed as second-order rate constant using ATCh as substrate incubated for 30 mins by Ellman's method; settings: filed as activator
[2] = molecular target: Cholinesterase (Homo sapiens) (UniProt P06276); assay: Reactivation of sarin induced inhibition of BChE in human plasma assessed as dissociation constant using ATCh as substrate incubated for 30 mins by Ellman's method
[3] = molecular target: Cholinesterase (Homo sapiens) (UniProt P06276); assay: Reactivation of tabun induced inhibition of BChE in human plasma assessed as dissociation constant using ATCh as substrate incubated for 30 mins by Ellman's method; settings: filed as activator
[4] = molecular target: Cholinesterase (Homo sapiens) (UniProt P06276); assay: Reactivation of VX induced inhibition of BChE in human plasma assessed as first-order reactivation rate constant using ATCh as substrate incubated for 30 mins by Ellman's method; settings: filed as activator
[5] = molecular target: Cholinesterase (Homo sapiens) (UniProt P06276); assay: Reactivation of VX induced inhibition of BChE in human plasma assessed as dissociation constant using ATCh as substrate incubated for 30 mins by Ellman's method; settings: filed as activator
[6] = molecular target: Cholinesterase (Homo sapiens) (UniProt P06276); assay: Reactivation of VX induced inhibition of BChE in human plasma assessed as second-order rate constant using ATCh as substrate incubated for 30 mins by Ellman's method; settings: filed as activator
[7] = molecular target: Cholinesterase (Homo sapiens) (UniProt P06276); assay: Reactivation of tabun induced inhibition of BChE in human plasma assessed as second-order rate constant using ATCh as substrate incubated for 30 mins by Ellman's method; settings: filed as activator
[8] = molecular target: Cholinesterase (Homo sapiens) (UniProt P06276); assay: Reactivation of tabun induced inhibition of BChE in human plasma assessed as first-order reactivation rate constant using ATCh as substrate incubated for 30 mins by Ellman's method; settings: filed as activator
[9] = molecular target: Cholinesterase (Homo sapiens) (UniProt P06276); assay: Reactivation of cyclosarin induced inhibition of BChE in human plasma assessed as second-order rate constant using ATCh as substrate incubated for 30 mins by Ellman's method; settings: filed as activator
[10] = molecular target: Cholinesterase (Homo sapiens) (UniProt P06276); assay: Reactivation of sarin induced inhibition of BChE in human plasma assessed as first-order reactivation rate constant using ATCh as substrate incubated for 30 mins by Ellman's method; settings: filed as activator
[11] = molecular target: Cholinesterase (Homo sapiens) (UniProt P06276); assay: Reactivation of cyclosarin induced inhibition of BChE in human plasma assessed as first-order reactivation rate constant using ATCh as substrate incubated for 30 mins by Ellman's method; settings: filed as activator
[12] = molecular target: Cholinesterase (Homo sapiens) (UniProt P06276); assay: Reactivation of cyclosarin induced inhibition of BChE in human plasma assessed as dissociation constant using ATCh as substrate incubated for 30 mins by Ellman's method; settings: filed as activator
[13] = molecular target: Acetylcholinesterase (Homo sapiens) (UniProt P22303); assay: Reactivation of tabun induced inhibition of recombinant human AChE assessed as maximal first-order reactivation rate constant using ATCh as substrate incubated for 30 mins by Ellman's method; settings: filed as activator
[14] = molecular target: Acetylcholinesterase (Homo sapiens) (UniProt P22303); assay: Reactivation of cyclosarin induced inhibition of recombinant human AChE assessed as second-order reactivation rate constant using ATCh as substrate incubated for 30 mins by Ellman's method; settings: filed as activator
[15] = molecular target: Acetylcholinesterase (Homo sapiens) (UniProt P22303); assay: Reactivation of VX induced inhibition of recombinant human AChE assessed as maximal first-order reactivation rate constant using ATCh as substrate incubated for 30 mins by Ellman's method; settings: filed as activator
[16] = molecular target: Acetylcholinesterase (Homo sapiens) (UniProt P22303); assay: Reactivation of sarin induced inhibition of recombinant human AChE assessed as dissociation constant using ATCh as substrate incubated for 30 mins by Ellman's method
[17] = molecular target: Acetylcholinesterase (Homo sapiens) (UniProt P22303); assay: Reactivation of sarin induced inhibition of recombinant human AChE assessed as second-order reactivation rate constant using ATCh as substrate incubated for 30 mins by Ellman's method; settings: filed as activator
[18] = molecular target: Acetylcholinesterase (Homo sapiens) (UniProt P22303); assay: Reactivation of cyclosarin induced inhibition of recombinant human AChE assessed as dissociation constant using ATCh as substrate incubated for 30 mins by Ellman's method; settings: filed as activator
[19] = molecular target: Acetylcholinesterase (Homo sapiens) (UniProt P22303); assay: Reactivation of VX induced inhibition of recombinant human AChE assessed as second-order reactivation rate constant using ATCh as substrate incubated for 30 mins by Ellman's method; settings: filed as activator
[20] = molecular target: Acetylcholinesterase (Homo sapiens) (UniProt P22303); assay: Reactivation of tabun induced inhibition of recombinant human AChE assessed as dissociation constant using ATCh as substrate incubated for 30 mins by Ellman's method; settings: filed as activator
[21] = molecular target: Acetylcholinesterase (Homo sapiens) (UniProt P22303); assay: Reactivation of VX induced inhibition of recombinant human AChE assessed as dissociation constant using ATCh as substrate incubated for 30 mins by Ellman's method; settings: filed as activator
[22] = molecular target: Acetylcholinesterase (Homo sapiens) (UniProt P22303); assay: Reactivation of tabun induced inhibition of recombinant human AChE assessed as second-order reactivation rate constant using ATCh as substrate incubated for 30 mins by Ellman's method; settings: filed as activator
[23] = molecular target: Acetylcholinesterase (Homo sapiens) (UniProt P22303); assay: Reactivation of cyclosarin induced inhibition of recombinant human AChE assessed as maximal first-order reactivation rate constant using ATCh as substrate incubated for 30 mins by Ellman's method; settings: filed as activator
[24] = Antioxidant activity assessed as FRAP radical activity at 1 mM by FRAP assay
[25] = Antioxidant activity assessed as FRAP radical activity at 50 uM by FRAP assay
[26] = molecular target: Acetylcholinesterase (Homo sapiens) (UniProt P22303); assay: Reactivation of tabun induced inhibition of AChE in human erythrocytes assessed as dissociation constant using ATCh as substrate by Ellman's method; settings: Erythrocyte, filed as activator

| SMILES | K [1] [µM] | Kdiss [3] [µM] | K [6] | K [7] [M⁻¹ s⁻¹] | K [8] [min⁻¹] | K [9] [µM] | K [11] [min⁻¹] | Kdiss [12] [µM] | further results |
| --- | --- | --- | --- | --- | --- | --- | --- | --- | --- |
| NC(=O)c1cc[n+](COC[n+]2ccccc2/C=N/O)cc1 | 150 | 1800 | 1.92 M⁻¹ s⁻¹ | 0.015 | 0.0016 | 780 |  |  | Kdiss ([2]; filed as activator): 270 µM; K [4]: 0.12 min⁻¹; Kdiss [5]: 370 µM; K [10]: 0.04 min⁻¹ |
| NC(=O)c1cc[n+](CCC[n+]2ccc(/C=N/O)cc2)cc1 | 116 | 1600 | 330 µM | 0.0367 | 0.0035 | 60 | 0.039 | 652 | Kdiss [2]: > 100 µM |
| C[n+]1ccccc1C=NO | 75 | 1270 | 35 µM | 0.015 | 0.0011 | 65 | 0.08 | 1200 | Kdiss ([2]; filed as activator): 2400 µM; K [4]: 0.09 min⁻¹; Kdiss [5]: 2680 µM; K [10]: 0.18 min⁻¹ |
| NC(=O)c1cc[n+](CCC[n+]2ccc(/C=N/O)c(F)c2)cc1 | 24.4 |  | 86 µM |  |  | 44 | 0.026 | 598 | Kdiss [2]: > 100 µM; K [13]: 0.0055 min⁻¹; K [14]: 28.3 M⁻¹ s⁻¹; K [15]: 0.29 min⁻¹; Kdiss [16]: > 500 µM; K [17]: 5.47 M⁻¹ s⁻¹; Kdiss [18]: 238 µM; K [19]: 6.47 M⁻¹ s⁻¹; Kdiss [20]: 29 µM; Kdiss [21]: 734 µM; K [22]: 3.1 M⁻¹ s⁻¹; K [23]: 0.41 min⁻¹ |
| NC(=O)c1cc[n+](CCC[n+]2cc(Cl)c(/C=N/O)c(Cl)c2)cc1 | 360 | 480 | 2.5 M⁻¹ s⁻¹ | 1 | 0.028 | 240 | 0.08 | 320 | Kdiss [2]: > 100 µM; K [4]: 0.07 min⁻¹; Kdiss [5]: 490 µM |
| NC(=O)c1cc[n+](C/C=C/C[n+]2cc(F)c(/C=N/O)c(F)c2)cc1 |  |  |  |  |  |  |  |  | Activity [24]: 1.6 mM |
| Cc1c(C)c2c(c(C)c1O)CCC(C)(C(=O)O)O2 (configuration not stated) |  |  |  |  |  |  |  |  | Activity [25]: 2.03 mM |
| O/N=C/c1cc[n+](CCC[n+]2ccc(/C=N/O)cc2)cc1 |  | 250 |  | 0.233 | 0.0036 |  |  |  | K [13]: 0.094 min⁻¹; Kdiss [20]: 135 µM; K [22]: 12.1 M⁻¹ s⁻¹ |
| NC(=O)c1cc[n+](C/C=C/C[n+]2ccc(/C=N/O)cc2)cc1 |  |  |  |  |  |  |  |  | Kdiss [26]: 70 µM |
| Cc1cc(C(C)(C)C)c(O)c(C(C)(C)C)c1 |  |  |  |  |  |  |  |  | Activity [24]: 2.7 mM |
| NC(=O)c1cc[n+](C/C=C/C[n+]2ccc(/C=N/O)c(F)c2)cc1 |  |  |  |  |  |  |  |  | K [13]: 0.026 min⁻¹; Kdiss [20]: 76 µM; K [22]: 5.62 M⁻¹ s⁻¹ |
